Targets include HLA-B*1801 (Homo sapiens, UniProt P01889, A329T/A93T/A95T/C349S/D201E/D54G/D98Y/E176V/E187T/E204Q/E69T/K202T/Q94N/R155S/R180L/S121R/V306I/Y140S/Y195H/Y33H/Y91S); HLA-B*4402 (Homo sapiens, UniProt P01889, A223V/A65T/A93T/A95T/D201E/D98Y/E176V/E187L/E204Q/E69K/G107R/H137Y/K202T/L105A/L119I/N104T/N87E/Q56L/Q94N/R106L/R155S/R180D/S101N/S121R/S35A/S48T/T118I/V36M/W191S/Y140D/Y91S); HLA-B*4501 (Homo sapiens, UniProt P01889, A329T/A65T/A93T/A95T/C349S/D138N/D201E/D98Y/E176V/E187L/E204Q/E69K/H137Y/K202T/L119W/N87E/Q56L/Q94N/R155S/R180D/S121R/S35A/S48T/V127L/V306I/V36M/W191S/Y140L/Y33H/Y91S); HLA-B*4001 (Homo sapiens, UniProt P01889, A65T/A93T/A95T/D138N/D98Y/E176V/E69K/N87E/Q56L/Q94N/R180L/S121R/S35A/S48T/T167S/V36M/W171L/Y33H/Y91S); HLA-B*4403 (Homo sapiens, UniProt P01889, A223V/A65T/A93T/A95T/D201E/D98Y/E176V/E187L/E204Q/E69K/G107R/H137Y/K202T/L105A/L119I/N104T/N87E/Q56L/Q94N/R106L/R155S/R180L/S101N/S121R/S35A/S48T/T118I/V36M/W191S/Y140D/Y91S); HLA-B*4002 (Homo sapiens, UniProt P01889, A65T/A93T/A95T/D138N/D201E/D98Y/E176V/E204Q/E69K/K202T/N87E/Q56L/Q94N/R180L/S48T/Y33H/Y91S).

What all share (assay): biochemical
What all share (type): binding

As a reminder, the IC50 is the concentration that inhibits the measured activity by half. High values mean lower potency, low ones higher potency.

As for `CC(C)C[C@H](NC(=O)[C@H](CC(C)C)NC(=O)[C@@H](NC(=O)[C@H](CCC(=O)O)NC(=O)[C@H](CCCCN)NC(=O)CNC(=O)[C@H](CCC(=O)O)NC(=O)[C@H](C)N)C(C)C)C(=O)O`, the IC50 against HLA-B*1801 stood at 11500 nM; at HLA-B*4402 it was 17300 nM; against HLA-B*4501, 14200 nM; on HLA-B*4001 it was 1310 nM.
At HLA-B*4403, `CC[C@H](C)[C@H](NC(=O)[C@H](CCC(=O)O)NC(=O)[C@@H]1CCCN1C(=O)[C@H](CCC(=O)O)NC(=O)[C@@H](N)CS)C(=O)N[C@@H](CCC(N)=O)C(=O)N[C@@H](CC(N)=O)C(=O)N[C@H](C(=O)N[C@H](C(=O)O)[C@@H](C)O)[C@@H](C)O` showed an IC50 of 120 nM.
Take `CSCC[C@H](NC(=O)[C@H](CCCNC(=N)N)NC(=O)[C@@H]1CCCN1C(=O)CNC(=O)[C@H](CCC(=O)O)NC(=O)[C@H](CCC(=O)O)NC(=O)[C@@H](N)CCC(=O)O)C(=O)N[C@@H](Cc1ccccc1)C(=O)N1CCC[C@H]1C(=O)N[C@@H](CC(=O)O)C(=O)N[C@@H](CC(C)C)C(=O)O`: the IC50 at HLA-B*1801 amounted to 1010 nM; against HLA-B*4002, 3470 nM; against HLA-B*4402, 3270 nM; against HLA-B*4501, 209 nM; at HLA-B*4001, 2650 nM.
As for `CC(C)C[C@H](NC(=O)[C@H](CC(=O)O)NC(=O)[C@@H]1CCCN1C(=O)[C@H](Cc1ccccc1)NC(=O)[C@@H](NC(=O)[C@H](CO)NC(=O)[C@@H]1CCCN1C(=O)CNC(=O)[C@H](CCC(=O)O)NC(=O)[C@@H](N)CCC(=O)O)[C@@H](C)O)C(=O)O`, the IC50 is 591 nM at HLA-B*4002, 198 nM against HLA-B*4402 and 655 nM against HLA-B*4001.
Consider `CC[C@H](C)[C@H](NC(=O)[C@H](CCCCN)NC(=O)[C@H](CCC(=O)O)NC(=O)[C@@H](N)CCC(=O)O)C(=O)N[C@@H](Cc1c[nH]c2ccccc12)C(=O)N[C@@H](CCC(=O)O)C(=O)N[C@@H](CCC(=O)O)C(=O)N[C@@H](CC(C)C)C(=O)N[C@@H](CO)C(=O)N[C@@H](CCSC)C(=O)N[C@@H](CC(C)C)C(=O)O`, for which the IC50 on HLA-B*1801 was found to be 1640 nM; against HLA-B*4402, 1860 nM; against HLA-B*4001, 4980 nM.
Molecule `CC[C@H](C)[C@H](NC(=O)[C@H](CCC(=O)O)NC(=O)[C@H](CCC(=O)O)NC(=O)[C@H](CC(C)C)NC(=O)[C@@H](NC(=O)[C@H](CCC(=O)O)NC(=O)[C@@H](N)Cc1ccccc1)[C@@H](C)O)C(=O)N[C@H](C(=O)NCC(=O)N[C@@H](Cc1ccc(O)cc1)C(=O)O)[C@@H](C)O` yielded an IC50 on HLA-B*4403 of 1680 nM.
Turning to `CC(C)C[C@H](NC(=O)CNC(=O)[C@H](CC(C)C)NC(=O)[C@H](C)NC(=O)[C@H](CCC(=O)O)NC(=O)CN)C(=O)N[C@H](C(=O)NCC(=O)N[C@@H](C)C(=O)N[C@@H](CCC(N)=O)C(=O)N[C@@H](C)C(=O)O)C(C)C`, the IC50 against HLA-B*1801 was determined as 877 nM; on HLA-B*4402, 3570 nM; at HLA-B*4001, 4290 nM.
Regarding `CC(C)C[C@H](NC(=O)[C@H](CC(N)=O)NC(=O)[C@H](CCC(=O)O)NC(=O)CN)C(=O)N[C@@H](CC(N)=O)C(=O)N[C@@H](CC(C)C)C(=O)N[C@@H](CO)C(=O)N[C@@H](CS)C(=O)N[C@@H](Cc1c[nH]cn1)C(=O)N[C@@H](C)C(=O)N[C@@H](C)C(=O)O`, the IC50 is 7840 nM against HLA-B*1801, 1910 nM against HLA-B*4402 and 4560 nM against HLA-B*4001.
For `CC[C@H](C)[C@H](NC(=O)[C@H](CCC(=O)O)NC(=O)[C@@H](N)CCCCN)C(=O)N[C@@H](CC(C)C)C(=O)N[C@@H](CC(=O)O)C(=O)N[C@@H](CCC(=O)O)C(=O)N[C@@H](C)C(=O)N[C@@H](Cc1ccc(O)cc1)C(=O)N[C@H](C(=O)N[C@@H](CCSC)C(=O)N[C@@H](C)C(=O)O)C(C)C`, the IC50 is 731 nM at HLA-B*1801, 11500 nM against HLA-B*4402, 123 nM on HLA-B*4501 and 252 nM at HLA-B*4001.
On to `CC(C)C[C@H](NC(=O)CNC(=O)[C@H](CC(C)C)NC(=O)[C@H](C)NC(=O)[C@H](CCC(=O)O)NC(=O)CNC(=O)[C@H](CCCNC(=N)N)NC(=O)[C@H](C)NC(=O)[C@H](CCC(=O)O)NC(=O)[C@@H](N)CC(C)C)C(=O)O`, for which the IC50 against HLA-B*4002 stood at 277 nM; against HLA-B*4402, 2280 nM; against HLA-B*4001, 184 nM.
On to `CC(C)C[C@H](NC(=O)[C@H](CC(=O)O)NC(=O)[C@H](CCCNC(=N)N)NC(=O)[C@H](Cc1c[nH]cn1)NC(=O)[C@@H](NC(=O)[C@H](CC(C)C)NC(=O)[C@H](CCCNC(=N)N)NC(=O)[C@@H](NC(=O)[C@H](CC(=O)O)NC(=O)[C@H](CCC(=O)O)NC(=O)[C@@H](N)CC(C)C)C(C)C)C(C)C)C(=O)O`, for which the half-maximal inhibitory concentration (IC50) at HLA-B*1801 is 729 nM; against HLA-B*4002, 641 nM; on HLA-B*4402, 818 nM; on HLA-B*4501, 2380 nM.
With `CC(C)C[C@H](NC(=O)[C@@H](NC(=O)[C@H](CO)NC(=O)[C@H](CCC(=O)O)NC(=O)[C@@H](N)CC(C)C)C(C)C)C(=O)N[C@@H](CCCNC(=N)N)C(=O)N[C@@H](CC(N)=O)C(=O)N[C@@H](CS)C(=O)N[C@@H](CCC(N)=O)C(=O)N[C@@H](CC(=O)O)C(=O)N[C@@H](Cc1ccccc1)C(=O)O`, the 50% inhibitory concentration (IC50) amounted to 209 nM at HLA-B*4402 and 5410 nM against HLA-B*4001.
For `C[C@H](NC(=O)CNC(=O)[C@H](CCCNC(=N)N)NC(=O)[C@H](CCC(=O)O)NC(=O)[C@@H]1CCCN1)C(=O)N1CCC[C@H]1C(=O)N1CCC[C@H]1C(=O)N[C@@H](CO)C(=O)N[C@H](C(=O)O)[C@@H](C)O`, the IC50 against HLA-B*4002 came to 7680 nM; against HLA-B*4402, 1120 nM; at HLA-B*4501 it was 7770 nM; against HLA-B*4001 it was 4740 nM.
`C[C@H](NC(=O)CNC(=O)[C@H](CCCNC(=N)N)NC(=O)[C@H](CCC(=O)O)NC(=O)[C@@H]1CCCN1)C(=O)N1CCC[C@H]1C(=O)N1CCC[C@H]1C(=O)N[C@@H](CO)C(=O)N[C@H](C(=O)N[C@@H](Cc1ccccc1)C(=O)O)[C@@H](C)O`: the values for the IC50 on HLA-B*4002, at HLA-B*4402 and on HLA-B*4001 were 3440 nM, 6870 nM and 14900 nM, respectively.
As for `CC(C)C[C@H](NC(=O)[C@@H](NC(=O)[C@H](CO)NC(=O)[C@H](CO)NC(=O)[C@H](CO)NC(=O)[C@H](CO)NC(=O)[C@H](C)NC(=O)[C@H](C)NC(=O)[C@H](CCC(=O)O)NC(=O)[C@@H](N)CCC(N)=O)[C@@H](C)O)C(=O)O`, the IC50 on HLA-B*4002 was 47 nM; against HLA-B*4402 it was 56 nM; on HLA-B*4001, 49 nM.
`CC[C@H](C)[C@H](NC(=O)[C@H](Cc1ccccc1)NC(=O)[C@H](CC(C)C)NC(=O)[C@H](CCC(=O)O)NC(=O)[C@@H](N)CCC(N)=O)C(=O)N[C@@H](CO)C(=O)N[C@@H](CC(N)=O)C(=O)N[C@H](C(=O)N[C@H](C(=O)O)[C@@H](C)O)[C@@H](C)CC`: the results for the IC50 against HLA-B*4402 and at HLA-B*4001 were 2330 nM and 6570 nM, respectively.
As to `CC(C)C[C@H](NC(=O)[C@H](CO)NC(=O)[C@H](CCC(N)=O)NC(=O)[C@H](CS)NC(=O)[C@H](CC(=O)O)NC(=O)[C@H](CCC(=O)O)NC(=O)[C@@H](N)CO)C(=O)N[C@H](C(=O)N[C@@H](CCCNC(=N)N)C(=O)N[C@H](C(=O)N[C@H](C(=O)O)C(C)C)[C@@H](C)O)[C@@H](C)O`, the IC50 against HLA-B*4002 turned out to be 311 nM; at HLA-B*4402 it was 943 nM; against HLA-B*4001 it was 4320 nM.
As for `CC(C)C[C@H](NC(=O)[C@H](Cc1ccc(O)cc1)NC(=O)[C@H](CCC(=O)O)NC(=O)[C@@H](N)CO)C(=O)N[C@@H](CCC(N)=O)C(=O)N[C@@H](CC(C)C)C(=O)N[C@H](C(=O)N[C@@H](Cc1ccccc1)C(=O)O)C(C)C`, the figures for the IC50 against HLA-B*4402 and on HLA-B*4001 were 284 nM and 765 nM, respectively.
For the molecule `CC(C)C[C@H](NC(=O)[C@@H](NC(=O)[C@H](CCCCN)NC(=O)[C@@H](NC(=O)[C@H](CCCCN)NC(=O)[C@H](CCCNC(=N)N)NC(=O)[C@H](CC(C)C)NC(=O)[C@H](CCC(=O)O)NC(=O)[C@@H](N)[C@@H](C)O)C(C)C)C(C)C)C(=O)O`, the IC50 against HLA-B*4403 came to 2.5 nM.
With `CC(C)[C@H](NC(=O)[C@H](CCCCN)NC(=O)CNC(=O)CNC(=O)[C@H](CC(=O)O)NC(=O)[C@H](C)NC(=O)[C@H](Cc1c[nH]cn1)NC(=O)[C@H](Cc1ccc(O)cc1)NC(=O)[C@H](CCC(=O)O)NC(=O)[C@@H](N)[C@@H](C)O)C(=O)O`, the results for the IC50 against HLA-B*4402, at HLA-B*4501 and on HLA-B*4001 were 2910 nM, 1570 nM and 5250 nM, respectively.
Consider `CC[C@H](C)[C@H](NC(=O)[C@H](C)NC(=O)[C@H](C)NC(=O)[C@H](CCC(N)=O)NC(=O)[C@H](Cc1ccccc1)NC(=O)[C@H](CCC(=O)O)NC(=O)[C@@H](N)CO)C(=O)O` [SEFQAAI], for which the IC50 is 779 nM on HLA-B*4002, 2660 nM against HLA-B*4402 and 6830 nM on HLA-B*4001.
On to `CC(C)C[C@H](NC(=O)[C@@H]1CCCN1C(=O)[C@H](CCC(=O)O)NC(=O)[C@@H](NC(=O)[C@H](CC(C)C)NC(=O)[C@H](CCC(=O)O)NC(=O)[C@@H](N)[C@@H](C)O)C(C)C)C(=O)O` [TELVEPL], for which the IC50 at HLA-B*4402 worked out at 8850 nM; against HLA-B*4001, 14200 nM.

(Values after patent US20060079453A1, “Hla binding peptides and their uses” (priority 2002, published 2006).)
